The results in this text go back to ChEMBL document CHEMBL3616458, “Synthesis of chiral ND-322, ND-364 and ND-364 derivatives as selective inhibitors of human gelatinase” (Bioorg Med Chem, 2015).

Chains of the proteins cited; added tags and fusions are not shown. Lines headed by an entry give the natural chain unless they say otherwise; changes in a name come on top.
UniProt P14780: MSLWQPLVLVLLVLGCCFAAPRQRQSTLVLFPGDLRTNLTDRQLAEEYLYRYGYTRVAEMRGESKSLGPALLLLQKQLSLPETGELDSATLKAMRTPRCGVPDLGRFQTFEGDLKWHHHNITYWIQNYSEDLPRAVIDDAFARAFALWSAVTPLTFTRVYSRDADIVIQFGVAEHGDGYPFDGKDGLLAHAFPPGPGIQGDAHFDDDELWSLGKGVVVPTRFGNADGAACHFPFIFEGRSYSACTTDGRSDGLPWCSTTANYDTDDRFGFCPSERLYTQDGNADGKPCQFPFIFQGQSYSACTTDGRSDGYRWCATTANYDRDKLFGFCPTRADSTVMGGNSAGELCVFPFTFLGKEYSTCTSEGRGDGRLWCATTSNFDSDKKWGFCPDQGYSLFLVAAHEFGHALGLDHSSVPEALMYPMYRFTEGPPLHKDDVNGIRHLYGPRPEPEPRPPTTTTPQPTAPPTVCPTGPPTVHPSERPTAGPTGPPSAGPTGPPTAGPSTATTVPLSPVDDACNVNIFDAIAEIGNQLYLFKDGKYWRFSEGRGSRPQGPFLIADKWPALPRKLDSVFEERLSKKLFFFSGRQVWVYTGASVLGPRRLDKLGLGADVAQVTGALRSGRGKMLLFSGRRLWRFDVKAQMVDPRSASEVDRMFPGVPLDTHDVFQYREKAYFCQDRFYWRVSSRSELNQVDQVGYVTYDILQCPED

By IC50 is commonly meant the concentration needed to halve the response being measured. Low values mean higher potency, high ones lower potency.

This test has as its target Matrix metalloproteinase-9 (Homo sapiens, UniProt P14780). In words: Inhibition of human full length MMP9 using Mca-Pro-Leu-Gly-Leu-Dap(Dnp)-Ala-Arg-NH2 as substrate incubated for 2 hrs prior to testing measured for 15 mins by fluorometric analysis.

In turn, `CC(=O)Nc1ccc(Oc2ccc(S(=O)(=O)C[C@H]3CS3)cc2)cc1` returned an IC50 of 0.429 µM. This counts as sub-micromolar. With `CC(=O)Nc1ccc(Oc2ccc(S(=O)(=O)CC3CS3)cc2)cc1` (racemic) the figure was 0.529 µM.

Compound `CC(=O)Nc1ccc(Oc2ccc(S(=O)(=O)C[C@@H]3CS3)cc2)cc1` yielded an IC50 of 0.677 µM.
